Results as given in patent US20010041716A1, “Compositions and methods for locally treating inflammatory diseases” (priority 1999, published 2001).

What was measured:
[1] = Method: Differential Thermal Analysis: The heat of fusion (ΔHf) and the entropy of fusion (ΔSf) of thalidomide and its N-alkyl analogs were determined with a Perkin-Elmer DSC7 Differential Scanning Calorimeter (DSC), which was calibrated with an indium standard.
Using this surmise, the solubility parameters for all the solutes were calculated. […] In each case the solutions are considered ideal at the peak of their parabolas.

[2] = pH 6
Method: Skin Preparation and Permeation: The human cadaver skin used in the permeation studies was obtained from the Anatomical Donation Program at the University of Michigan. Vertical Franz diffusion cells with a 4 ml capacity receptor compartment and a 0.8 cm^2 diffusion area were used in the permeation studies. The epidermal layer of the skin was mounted carefully onto the lower half of the cells of the difflusion apparatus with the stratum corneum facing up. The receptor compartments were filled with isotonic phosphate buffer (pH 6.4). […]
The permeability coefficient for a given run was calculated from Fick's law of diffuision: [formula]
dC/dt is the steady-state slope of a plot of the amount of substance which had penetrated the skin against time in terms of jig/h. It was determined by taking the ratio of the total amount permeated in an interval of time to the length of the time interval. […]
The permeation parameters (flux, J; lag time, TL and permeability coefficient, P) of thalidomide and its N-alkyl analogs from their saturated aqueous solutions (pH 6.0) and an ethanol/water/octanol vehicle are summarized in Table 4. […] The steady-state flux was determined from the slope of the linear portion of the cumulative amount-time plot. The lag time (TL) was determined by extrapolating the linear portion of the curve to its intersection with the time axis. […]

N-propyl thalidomide
Activity of solid phase a2^s, ΔCp = 0 [1]: 5.18 × 10^−2
Activity of solid phase a2^s, ΔCp = ΔSp [1]: 7.89 × 10^−2
Ln X2,ideal, ΔCp = 0 [1]: −2.96
Ln X2,ideal, ΔCp = ΔSr [1]: −2.54
Lag time TL = SD [2]: 1.8 ± 1.1 h
